Series [1] addresses T1, recombinant human HSP90beta (Homo sapiens, UniProt P08238).
T1 construct: purchased Dr. S. Rüdiger, Cellular Protein Chemistry, Utrecht University
The series is described as follows: Competition ELISA: HSP90 binding under influence of crossbeta binding compounds and geldanamycin. To be noted: 20 μg/ml HSP90; geldanamycin 10 μM; sRAGE 79 μg/ml; HSA 10 μM. On the procedure:
Binding of chaperones to immobilized (misfolded) protein ligands was determined using an enzyme linked immuno sorbent assay (ELISA) approach. For this purpose 50 μl/well of potential ligands at indicated concentrations or coat buffer only for control and background measurement purposes, were coated overnight at 4° C. or coated for 1 h at room temperature, with motion, in 50 mM NaHCO3 pH 9.6 (coat buffer). In general, ligands were coated at 5 μg/ml, unless stated otherwise. […] Native haemoglobin (Sigma-Aldrich, H7379), albumin, IgIV Gammagard and ovalbumin controls were prepared from lyophilized stocks. The controls were prepared by dissolving lyophilized proteins at 1 mg/ml in PBS upon resuspending by pipetting, followed by a 30 minutes period at the roller device, at room temperature. The protein solutions were centrifuged for 10 minutes at 16,000*g and diluted in coat buffer. […] After 5 washes with wash buffer followed by two washes with PBS, binding of antibodies was assessed. […] Plates were read at 450 nm. Triplicates were averaged and standard deviations calculated. […] Subsequently, sub-optimal concentrations of chaperones for binding to misfolded protein ligands are determined, and these concentrations are used for inhibition studies.
For orientation: An ELISA detects its analyte on a solid surface through an enzyme-linked reagent.

Series [2] relates to freshly isolated human platelets. The series is described as follows: Crossbeta-induced human platelet aggregation (aggregometer). In kind it is cell-based. On the procedure:
Ex vivo Human Blood Platelet Aggregation Assay
The influence of crossbeta structure binding chaperones on blood platelet aggregation induced by crossbeta structure or crossbeta structure comprising pathogens is tested with washed platelets or with platelet rich plasma in an aggregometric assay. Freshly drawn human aspirin free blood is mixed gently with citrate buffer to avoid coagulation. Blood is spinned for 15′ at 150*g at 20° C. and supernatant is collected; platelet rich plasma (PRP). Buffer with 2.5% trisodium citrate, 1.5% citric acid and 2% glucose, pH 6.5 is added to a final volume ratio of 1:10 (buffer-PRP). After spinning down the platelets upon centrifugation for 15′ at 330*g at 20° C., the pellet is resuspended in HEPES-Tyrode buffer pH 6.5. Prostacyclin is added to a final concentration of 10 ng/ml, and the solution is centrifuged for 15′ at 330*g at 20° C., with a soft brake. The pellet is resuspended in HEPES-Tyrode buffer pH 7.2 in a way that the final platelet number is adjusted to 200,000-250,000 platelets/μl. Platelets are kept at 37° C. for at least 30′, before use in the assays, to ensure that they are in the resting state. Platelets of approximately five donors are isolated separately.
For the aggregometric assays, platelet solution is added to a glass tube and prewarmed to 37° C. A stirring magnet is added and rotation is set to 900 rpm, and the apparatus (Whole-blood aggregometer, Chrono-log, Havertown, Pa., USA) is blanked. A final volume of 1/10 of the volume of the platelet suspension is added, containing the agonist of interest and/or the premixed antagonist of interest, prediluted in HEPES-Tyrode buffer pH 7.2. Aggregation is followed in time by measuring the absorbance of the solution, that is decrease in time upon platelet aggregation. As a positive control, either 10 μg/ml collagen (Kollagenreagens Horm, NYCOMED Pharma GmbH, Linz, Austria; lot 502940), or 5 μM of synthetic thrombin receptor activating compound TRAP. In tests to analyse the effect of chaperones, 10-100 μg/ml glycated haemoglobin or 10-100 μg/ml amyloid-β is used to induce platelet aggregation. Aggregation is recorded for at least 15′.
Platelet aggregation-studies with freshly isolated human platelets were performed as described above. For aggregation studies, platelets of four separate donors were used on subsequent days. For each donor, concentrations of misfolded crossbeta proteins were determined that result in sub-optimal platelet aggregation when compared to maximum aggregation induced by 8 μM synthetic thrombin receptor activating peptide (TRAP; SFLLRN, SEQ ID 10; positive control). The sub-optimal crossbeta protein concentration was then used to study the effects of indicated concentrations of BiP, sRAGE and negative control buffer. Since BiP-FLAG-His and sRAGE-FLAG-His were stored in PBS with 5% glycerol, one of the. buffer controls was this glycerol buffer diluted to the same extent as the BiP and sRAGE solutions. […] Misfolded proteins, buffer control or TRAP control were pre-mixed with buffer or BiP or sRAGE, and pre-incubated for 5 minutes at room temperature, before mixtures were added to the platelet suspension that was warmed at 37° C. and stirred at 900 rpm.

We go through two substances from patent US20100015126A1, “Methods of Binding of Cross-Beta Structures By Chaperones” (priority 2006, published 2010).

Take “CEALB HSA: human serum albumin (Sanquin), negative control”: in series [1], the “Binding of HSP90 to coated Aβ25-35 under influence of compound” value is “did not influence binding”.

Consider “sRAGE: soluble extracellular part of the receptor for advanced glycation endproducts”, for which the “Binding of HSP90 to coated Aβ25-35 under influence of compound” value in series [1] is “inhibited”. Besides, in series [2], the “Platelet aggregation by protein alone, without activator” value is “did not induce platelet aggregation”. For the same substance, the TRAP-induced platelet aggregation result in series [2] (8 μM TRAP) was “unaffected”. Moreover, the “Misfolded protein induced platelet aggregation” value in series [2] (activators Aβ42t=0, HbAGE, BSA-AGE, four donors) is “potently inhibited”. Besides, in series [2] (donor a), the “Platelet aggregation induced by amyloid-β1-42” value is “strongly inhibited” and the “Platelet aggregation induced by crossbeta BSA-AGE” value is “strongly inhibited”. Moreover, the “Platelet aggregation induced by Aβ1-42” value in series [2] (donor b, Aβ42t=0 26.7 μg/ml) is “inhibited”. In addition, the “Platelet aggregation induced by crossbeta BSA-AGE” value in series [2] (donor b, BSA-AGE 33.3 μg/ml) was “strongly inhibited”. In series [2] (donor c), the “Aβ42 induced platelet activation” value is “abolish”, the “BSA-AGE induced platelet aggregation” value was “inhibit” and the “HbAGE induced platelet aggregation” value was “effectively blocked”. The “HbAGE induced platelet aggregation” value in series [2] (donor d, BiP 58 μg/ml, sRAGE 37.4 μg/ml, HbAGE 80 μg/ml) was “abolishes”.
